Results as given in ChEMBL document CHEMBL5226279, “Mercaptoacetamide: A promising zinc-binding group for the discovery of selective histone deacetylase 6 inhibitors” (Eur J Med Chem, 2021).

Assay: Efflux ratio of apparent permeability in human Caco-2 cells
Type: ADME, cell-based

**Q.** For CN(C)c1ccc(C(=O)NCCCCCNC(=O)CS)cc1, which efflux ratio is on record?
**A.** The efflux ratio was 1.36.
